Data taken from PMC4417150, “Selective inhibition of miR-21 by phage display screened peptide” (Nucleic Acids Research, 2015).

Key:
[1] = system: mature miR-21 in MCF-7 cells; test: qRT-PCR for mature miR-21 in MCF-7; format: cell-based; settings: MCF-7, 24 h, 0–10 μM, normalized to U1, three independent experiments
Procedure: Cells maintained in growth medium (DMEM high-glucose, 10% FBS, without antibiotic and antimycotic) were passaged in 24-well plate (5 × 10^4 cells/well), grown to 80% confluency and treated with different concentrations of the peptides. Cells were then incubated at 37°C humidified incubator (5% CO2) for 24 h. Total RNA was isolated from cells using TRizol® Reagent (Invitrogen). Expressions of mature microRNAs were determined by QuantiMir kit. (SBI, catalog number RA660A-1). Primers used for qRT-PCR is listed below: […]
Forward primer: […]
Reverse primer: QuantiMir universal reverse primer
The microRNA expression levels were detected using SYBR-green I PCR master mix (Applied biosystems) on Roche Lightcycler LC 480 and normalized with respect to U1 as a reference gene. The Real Time data analysis was done by using 2(-Delta Delta C(T)) method ([47]).

[2] = system: pre-miR-21; test: Tryptophan fluorescence titration (binding isotherm) with pre-miR-21; settings: peptide 100 nM; for binding to pre-miR-21 (in words): fluorescence titration, pre-miR-21 0 to 2 μM, pH 7.5; for intrinsic fluorescence change in the presence of pre-miR-21: 10 mM Tris-HCl (pH 7.5), 10 mM NaCl, 1 mM MgCl2
Procedure: Intrinsic fluorescence spectra of the tryptophan containing peptides were measured in Fluoromax 4 (Spex) spectrofluorophotometer. The excitation wavelength was set at 285 nm, and the emission spectra were recorded from 330 to 400 nm. In the titration experiments, the peptide concentration was fixed at 100 nM in a buffer containing 10 mM Tris-HCl (pH 7.5), 10 mM NaCl, 1 mM MgCl2 and the concentrations of the pre-miRNAs were varied from 0 to 2 μM. The changes in the fluorescence intensity at 355 nm (maximum wavelength) were monitored as a function of pre-miRNA concentrations. For data analysis, where F is the observed fluorescence intensity at each titrant concentration and Fi is the fluorescence intensities of initial states of titration. The data were fitted in the following equation: […]

[3] = biological target: T1, wild-type 12-mer peptide ALWPPNLHAWVP (synthetic (phage display Ph.D.-12 …)); test: intrinsic Trp fluorescence titration; Footprinting: 10 mM Tris-HCl pH 7.5, 10 mM NaCl, 1 mM MgCl2, 37 C; fluorescence titration conditions not in the material; settings: hairpin
T1 chain: ALWPPNLHAWVP

Molecule | relative level of mature miR-21 [1] | binding to pre-miR-21 (in words) [2] | intrinsic fluorescence change in the presence of pre-miR-21 [2] | Kd [3]
LPPAPWNWAHVL [scrambled mutant, control peptide, scrambled mutant: …] | totally ineffective in down regulating miR-21 | weak binding | did not show significant change | –
PVWAHLNPPWLA [reverse mutant, control peptide, reverse mutant: …] | totally ineffective in down regulating miR-21 | weak binding | did not show significant change | –
pre-miR-21 (structured_RNA) RNA: UGUCGGGUAGCUUAUCAGACUGAUGUUGACUGUUGAAUCUCAUGGCAACACCAGUCGAUGGGCUGUCUGACA | – | – | – | 0.0127 µM
